Source: PubChem BioAssay (NCI)
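In this assay, cells in 96-well plates receive the compound at five concentrations for 48 hours. Endpoints are linearly interpolated between the surrounding concentrations. GI50 marks 50% less growth. TGI is the concentration that stops growth completely.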

What was measured:
Test in all cases: NCI-60 cell line screen, 48 h
HOP-62 NSCLC = tested on: HOP-62 NSCLC
HCT-116 colon = tested on: HCT-116 colon
SK-MEL-5 melanoma = tested on: SK-MEL-5 melanoma
UO-31 renal = tested on: UO-31 renal
COLO 205 colon = tested on: COLO 205 colon
TK-10 renal = tested on: TK-10 renal
UACC-62 melanoma = tested on: UACC-62 melanoma
CAKI-1 renal = tested on: CAKI-1 renal
OVCAR-8 ovarian = tested on: OVCAR-8 ovarian
MDA-N = tested on: MDA-N
SR leukemia = tested on: SR leukemia
SK-MEL-28 melanoma = tested on: SK-MEL-28 melanoma
ACHN renal = tested on: ACHN renal
SF-268 CNS = tested on: SF-268 CNS
M14 melanoma = tested on: M14 melanoma
MOLT-4 leukemia = tested on: MOLT-4 leukemia
NCI-H322M lung = tested on: NCI-H322M lung
SF-539 CNS = tested on: SF-539 CNS
NCI/ADR-RES ovarian = tested on: NCI/ADR-RES ovarian
SK-OV-3 ovarian = tested on: SK-OV-3 ovarian
A498 renal = tested on: A498 renal
HT29 colon = tested on: HT29 colon
PC-3 prostate = tested on: PC-3 prostate
CCRF-CEM leukemia = tested on: CCRF-CEM leukemia
HCT-15 colon = tested on: HCT-15 colon
LOX IMVI melanoma = tested on: LOX IMVI melanoma
U251 CNS = tested on: U251 CNS
T-47D breast = tested on: T-47D breast
IGROV1 ovarian = tested on: IGROV1 ovarian
HOP-92 NSCLC = tested on: HOP-92 NSCLC
SF-295 CNS = tested on: SF-295 CNS
DU-145 prostate = tested on: DU-145 prostate
SNB-75 CNS = tested on: SNB-75 CNS
HS 578T breast = tested on: HS 578T breast
HL-60(TB) leukemia = tested on: HL-60(TB) leukemia
EKVX NSCLC = tested on: EKVX NSCLC
SK-MEL-2 melanoma = tested on: SK-MEL-2 melanoma
NCI-H23 lung = tested on: NCI-H23 lung
OVCAR-5 ovarian = tested on: OVCAR-5 ovarian
SNB-19 CNS = tested on: SNB-19 CNS
NCI-H226 lung = tested on: NCI-H226 lung
786-0 renal = tested on: 786-0 renal
NCI-H460 lung = tested on: NCI-H460 lung
NCI-H522 lung = tested on: NCI-H522 lung
MALME-3M melanoma = tested on: MALME-3M melanoma
HCC-2998 colon = tested on: HCC-2998 colon
BT-549 breast = tested on: BT-549 breast
UACC-257 melanoma = tested on: UACC-257 melanoma
SN12C renal = tested on: SN12C renal
KM12 colon = tested on: KM12 colon
MDA-MB-435 = tested on: MDA-MB-435
RPMI-8226 leukemia = tested on: RPMI-8226 leukemia
MCF7 breast = tested on: MCF7 breast
RXF 393 renal = tested on: RXF 393 renal
OVCAR-4 ovarian = tested on: OVCAR-4 ovarian
MDA-MB-231 breast = tested on: MDA-MB-231 breast
OVCAR-3 ovarian = tested on: OVCAR-3 ovarian
K-562 leukemia = tested on: K-562 leukemia
A549 NSCLC = tested on: A549 NSCLC

## O=C(NCC(F)([N+](=O)[O-])[N+](=O)[O-])N(CC(F)([N+](=O)[O-])[N+](=O)[O-])CC(F)([N+](=O)[O-])[N+](=O)[O-]
HOP-62 NSCLC
  GI50: 9.61 µM
  TGI: 60.1 µM
HCT-116 colon
  GI50: 2.15 µM
  TGI: 5.37 µM
SK-MEL-5 melanoma
  GI50: 2.41 µM
  TGI: 7.83 µM
UO-31 renal
  GI50: 2.51 µM
  TGI: 7.61 µM
COLO 205 colon
  GI50: 1.99 µM
  TGI: 3.99 µM
TK-10 renal
  GI50: 2.57 µM
  TGI: 7.26 µM
UACC-62 melanoma
  GI50: 10.5 µM
  TGI: 24.1 µM
CAKI-1 renal
  GI50: 1.18 µM
  TGI: 2.5 µM
OVCAR-8 ovarian
  GI50: 3 µM
  TGI: 34.2 µM
MDA-N
  GI50: 2.37 µM
  TGI: 6.69 µM
SR leukemia
  GI50: 1.94 µM
  TGI: 10.5 µM
SK-MEL-28 melanoma
  GI50: 5.86 µM
  TGI: 13.7 µM
ACHN renal
  GI50: 2.26 µM
  TGI: 6.68 µM
SF-268 CNS
  GI50: 3.71 µM
  TGI: 10.9 µM
M14 melanoma
  GI50: 2.18 µM
  TGI: 6.39 µM
MOLT-4 leukemia
  GI50: 1.59 µM
  TGI: 3.93 µM
NCI-H322M lung
  GI50: 20.2 µM
  TGI: 62.1 µM
SF-539 CNS
  GI50: 2.84 µM
  TGI: 8.38 µM
NCI/ADR-RES ovarian
  GI50: 6.68 µM
  TGI: 36.5 µM
SK-OV-3 ovarian
  GI50: 15.4 µM
  TGI: 28.8 µM
A498 renal
  GI50: 4.86 µM
  TGI: 13.2 µM
HT29 colon
  GI50: 2.22 µM
  TGI: 5.78 µM
PC-3 prostate
  GI50: 2.48 µM
  TGI: 7.04 µM
CCRF-CEM leukemia
  GI50: 1.69 µM
  TGI: 5.71 µM
HCT-15 colon
  GI50: 1.39 µM
  TGI: 2.68 µM
LOX IMVI melanoma
  GI50: 2.12 µM
  TGI: 7.23 µM
U251 CNS
  GI50: 4.76 µM
  TGI: 19.4 µM
T-47D breast
  GI50: 2.57 µM
  TGI: 7.69 µM
IGROV1 ovarian
  GI50: 5.04 µM
  TGI: 19.3 µM
HOP-92 NSCLC
  GI50: 1.71 µM
  TGI: 3.93 µM
SF-295 CNS
  GI50: 15 µM
  TGI: 36.4 µM
DU-145 prostate
  GI50: 9.82 µM
  TGI: 23.3 µM
SNB-75 CNS
  GI50: 3.4 µM
  TGI: 11 µM
HS 578T breast
  GI50: 13.4 µM
  TGI: 59.1 µM
HL-60(TB) leukemia
  GI50: 1.5 µM
  TGI: 4.96 µM
EKVX NSCLC
  GI50: 8.25 µM
  TGI: 34 µM
SK-MEL-2 melanoma
  GI50: 3.15 µM
  TGI: 9.56 µM
NCI-H23 lung
  GI50: 10.5 µM
  TGI: 77.5 µM
OVCAR-5 ovarian
  GI50: 14.3 µM
  TGI: 29.7 µM
SNB-19 CNS
  GI50: 13.3 µM
  TGI: 34.7 µM
NCI-H226 lung
  GI50: 7.46 µM
  TGI: 27.9 µM
786-0 renal
  GI50: 2.16 µM
  TGI: 4.8 µM
NCI-H460 lung
  GI50: 3.27 µM
  TGI: 11.4 µM
NCI-H522 lung
  GI50: 1.58 µM
  TGI: 4.02 µM
MALME-3M melanoma
  GI50: 2.19 µM
  TGI: 5.16 µM
HCC-2998 colon
  GI50: 8.6 µM
  TGI: 26.5 µM
BT-549 breast
  GI50: 2.17 µM
  TGI: 6.28 µM
UACC-257 melanoma
  GI50: 5.5 µM
  TGI: 18.5 µM
SN12C renal
  GI50: 5.48 µM
  TGI: 18.5 µM
KM12 colon
  GI50: 5.88 µM
  TGI: 18.8 µM
MDA-MB-435
  GI50: 1.5 µM
  TGI: 3.46 µM
RPMI-8226 leukemia
  GI50: 0.88 µM
  TGI: 4.16 µM
MCF7 breast
  GI50: 1.23 µM
  TGI: 2.8 µM
RXF 393 renal
  GI50: 2.15 µM
  TGI: 4.81 µM
OVCAR-4 ovarian
  GI50: 2.36 µM
  TGI: 11.8 µM
MDA-MB-231 breast
  GI50: 2.45 µM
  TGI: 7.54 µM
OVCAR-3 ovarian
  GI50: 2.42 µM
  TGI: 6.63 µM
K-562 leukemia
  GI50: 1.34 µM
  TGI: 3.7 µM
A549 NSCLC
  GI50: 6.17 µM
  TGI: 24 µM
